Laboratory results taken from patent US8921546B2, “Imidazolothiazole compounds for the treatment of disease” (Ambit Biosciences Corporation, priority 2006, dated 2014).

Test system: MV4-11 cells
Assay: Cellular proliferation assay (MTS), MV4-11
Conditions: Homo sapiens, MV4-11, 72 h, read-out: Cellular Assay MV-proliferation IC50 (nM)

Compound `O=C(Nc1ccc(-c2cn3c(n2)sc2cc(OCCN4CCOCC4)ccc23)cc1)Nc1ccc2c(c1)OCO2` [Compound F3] has an IC50 of less than 10 nM.
